Laboratory results published in patent US20070020327A1.

How the values were obtained:
Conditions in all cases: remark: other sources report otherwise
HLA-A*0203 (human) [1] = assay: competition with 125I-labelled standard peptide on purified HLA, gel filtration
HLA-A*0201 (human) [2] = assay: as above
HLA-A*0202 (human) [3] = assay: inhibition of 125I-labelled probe peptide binding to purified HLA; gel filtration
HLA-A*0203 (human) [4] = assay: as above
HLA-A*0201 (human) [5] = assay: as above
HLA-A*0206 (human) [6] = assay: as above
HLA-A*6802 (human) [7] = assay: as above
HLA-A*0203 (human) [8] = assay: competition with 125I-labeled probe peptide for purified HLA, gel filtration
HLA-A*0201 (human) [9] = assay: as above
HLA-A*0202 (human) [10] = assay: as above
HLA-A*0206 (human) [11] = assay: inhibition of 125I-labelled probe peptide binding to purified HLA, gel filtration
HLA-A*6802 (human) [12] = assay: as above
HLA-A*0202 (human) [13] = assay: as above
HLA-A*0203 (human) [14] = assay: as above
HLA-A*0201 (human) [15] = assay: as above
HLA-A*0202 (human) [16] = assay: competition with 125I standard peptide for purified HLA; gel filtration
HLA-A*0203 (human) [17] = assay: as above
HLA-A*0206 (human) [18] = assay: as above
HLA-A*6802 (human) [19] = assay: as above
HLA-A*0201 (human) [20] = assay: as above
HLA-A*0206 (human) [21] = assay: competition with 125I-labelled standard peptide for purified HLA, gel filtration
HLA-A*6802 (human) [22] = assay: as above
HLA-A*0202 (human) [23] = assay: as above
HLA-A*0203 (human) [24] = assay: as above
HLA-A*0201 (human) [25] = assay: as above
HLA-A*0206 (human) [26] = assay: competitive inhibition of 125I-labelled standard peptide binding to purified HLA, gel filtration
HLA-A*6802 (human) [27] = assay: as above
HLA-A*0202 (human) [28] = assay: as above
HLA-A*0203 (human) [29] = assay: as above
HLA-A*0201 (human) [30] = assay: as above

B1: peptide 63.0031 … (PAP.7.V10) (peptide)
peptide: LLARAASLSV
modifications: not checked
HLA-A*0203 (human) [1]
  IC50: 21 nM
HLA-A*0201 (human) [2]
  IC50: 109 nM

B2: peptide 63.0034 … (PAP.30.V10) (peptide)
peptide: VLAKELKFVV
modifications: not checked
HLA-A*0203 (human) [1]
  IC50: 189 nM
HLA-A*0201 (human) [2]
  IC50: 31 nM

B3: peptide 1044.04 (PAP.135) (peptide)
peptide: ILLWQPIPV
modifications: not checked
HLA-A*0202 (human) [3]
  IC50: 39 nM
HLA-A*0203 (human) [4]
  IC50: 1.8 nM
HLA-A*0201 (human) [5]
  IC50: 3.3 nM
HLA-A*0206 (human) [6]
  IC50: 71 nM

B4: peptide 1418.25 (PAP.135.T2) (peptide)
peptide: ITLWQPIPV
modifications: not checked
HLA-A*0203 (human) [4]
  IC50: 6.2 nM
HLA-A*0201 (human) [5]
  IC50: 34 nM
HLA-A*6802 (human) [7]
  IC50: 32 nM

B5: peptide 1097.05 (PAP.284) (peptide)
peptide: IMYSAHDTTV
modifications: not checked
HLA-A*0202 (human) [3]
  IC50: 1.5 nM
HLA-A*0203 (human) [4]
  IC50: 14 nM
HLA-A*0201 (human) [5]
  IC50: 217 nM
HLA-A*0206 (human) [6]
  IC50: 411 nM

B6: Peptide 1126.10 … (PSM.27) (peptide)
peptide: VLAGGFFLL
modifications: not checked
HLA-A*0203 (human) [8]
  IC50: 33 nM
HLA-A*0201 (human) [9]
  IC50: 39 nM

B7: Peptide 1126.16 … (PSM.667) (peptide)
peptide: QLMFLERAFI
modifications: not checked
HLA-A*0202 (human) [10]
  IC50: 36 nM
HLA-A*0201 (human) [9]
  IC50: 98 nM

B8: Peptide 63.0109 (HuK2.120.V11; PSA.116.V11) … (peptide)
peptide: DLMLLRLSEPV
modifications: not checked
HLA-A*0206 (human) [11]
  IC50: 148 nM
HLA-A*6802 (human) [12]
  IC50: 2760 nM

B9: Peptide 1418.43 (HuK2.121.V10; PSA.117.V10) … (peptide)
peptide: LMLLRLSEPV
modifications: not checked
HLA-A*0202 (human) [13]
  IC50: 67 nM
HLA-A*6802 (human) [12]
  IC50: 6150 nM

B10: Peptide 1389.10 (HuK2.122.V9; PSA.118.V9) … (peptide)
peptide: MLLRLSEPV
modifications: not checked
HLA-A*0202 (human) [13]
  IC50: 36 nM
HLA-A*0203 (human) [14]
  IC50: 46 nM
HLA-A*0201 (human) [15]
  IC50: 36 nM
HLA-A*0206 (human) [11]
  IC50: 638 nM
HLA-A*6802 (human) [12]
  IC50: 421 nM

B11: Peptide 1419.51 … (PAP.13) (peptide)
peptide: SLSLGFLFLL
modifications: not checked
HLA-A*0202 (human) [16]
  IC50: 13 nM
HLA-A*0203 (human) [17]
  IC50: 403 nM
HLA-A*0206 (human) [18]
  IC50: 21 nM
HLA-A*6802 (human) [19]
  IC50: 8560 nM

B12: Peptide 1418.25 … (PAP.135.T2) (peptide)
peptide: ITLWQPIPV
modifications: not checked
HLA-A*0203 (human) [17]
  IC50: 6.2 nM
HLA-A*0201 (human) [20]
  IC50: 34 nM
HLA-A*6802 (human) [19]
  IC50: 32 nM

B13: peptide 1419.13 (PSA.116.V11 / HuK2.120.V11) (peptide)
peptide: DLMLLRLSEPV
modifications: not checked
HLA-A*0206 (human) [21]
  IC50: 148 nM
HLA-A*6802 (human) [22]
  IC50: 2760 nM

B14: peptide 1389.10 (PSA.118.V9 / HuK2.122.V9) (peptide)
peptide: MLLRLSEPV
modifications: not checked
HLA-A*0202 (human) [23]
  IC50: 36 nM
HLA-A*0203 (human) [24]
  IC50: 46 nM
HLA-A*0201 (human) [25]
  IC50: 36 nM
HLA-A*0206 (human) [21]
  IC50: 638 nM
HLA-A*6802 (human) [22]
  IC50: 421 nM

B15: peptide 1419.13 … (HuK2.120.V11) (peptide)
peptide: DLMLLRLSEPV
modifications: not checked
HLA-A*0206 (human) [26]
  IC50: 148 nM
HLA-A*6802 (human) [27]
  IC50: 2760 nM

B16: peptide 1389.10 … (HuK2.122.V9) (peptide)
peptide: MLLRLSEPV
modifications: not checked
HLA-A*0202 (human) [28]
  IC50: 36 nM
HLA-A*0203 (human) [29]
  IC50: 46 nM
HLA-A*0201 (human) [30]
  IC50: 36 nM
HLA-A*0206 (human) [26]
  IC50: 638 nM
HLA-A*6802 (human) [27]
  IC50: 421 nM

B17: peptide 1419.17 … (HuK2.216.V11) (peptide)
peptide: PLVCNGVLQGV
modifications: not checked
HLA-A*0203 (human) [29]
  IC50: 19 nM
HLA-A*0201 (human) [30]
  IC50: 27 nM
